# Experimental data as given in US20230398228A1, “ERIBULIN-BASED ANTIBODY-DRUG CONJUGATES AND METHODS OF USE” (EISAI R&D MANAGEMENT CO., LTD., priority 2016, published 2023).
# System: NCI-H2110 xenograft
# Conditions: for tumor growth inhibition (TGI): Day 24; for regressed tumors that re-grew or remained measurable (fraction of mice): 30 days after the last dose; for Body weight, group MEAN: N 5
# [1] = eribulin 0.2 mg/kg q4dX3 i.v., day 38 post 1st dose
# [2] = eribulin 1.6 mg/kg q4dx3 i.v., day 17 post 1st dose
structure (smiles),measurement,setting,value
C=C1C[C@@H]2CC[C@@]34C[C@H]5O[C@H]6[C@@H](O3)[C@H]3O[C@H](CC[C@@H]3O[C@H]6[C@H]5O4)CC(=O)C[C@@H]3[C@@H](OC)[C@@H](C[C@H](O)CN)O[C@H]3C[C@H]3O[C@@H](CC[C@@H]1O2)C[C@@H](C)C3=C [eribulin],"tumor regression, in words",0.05 mg/kg q4dx3,no tumor regression observed
same,tumor growth inhibition (TGI),0.05 mg/kg q4dx3 i.v.,50.5%
same,"tumor regression, in words","0.2 mg/kg and higher, q4dX3 i.v.",Tumor regression was achieved
same,regressed tumors that re-grew or remained measurable (fraction of mice),0.2 mg/kg group,⅗
same,regressed tumors that re-grew or remained measurable (fraction of mice),0.8 mg/kg group,⅘
same,regressed tumors that re-grew or remained measurable (fraction of mice),1.6 mg/kg group,⅖
same,tumor growth inhibition (TGI),"0.2, 0.8, or 1.6 mg/kg q4dx3 i.v.",99%
same,"Body weight, group MEAN","eribulin 0.05 mg/kg q4dX3 i.v., day 0 post 1st dose",18.4
same,"Body weight, group MEAN","eribulin 0.05 mg/kg q4dX3 i.v., day 3 post 1st dose",18.8
same,"Body weight, group MEAN","eribulin 0.05 mg/kg q4dX3 i.v., day 5 post 1st dose",18.8
same,"Body weight, group MEAN","eribulin 0.05 mg/kg q4dX3 i.v., day 7 post 1st dose",18.8
same,"Body weight, group MEAN","eribulin 0.05 mg/kg q4dX3 i.v., day 10 post 1st dose",18.8
same,"Body weight, group MEAN","eribulin 0.05 mg/kg q4dX3 i.v., day 12 post 1st dose",18.5
same,"Body weight, group MEAN","eribulin 0.05 mg/kg q4dX3 i.v., day 17 post 1st dose",19.2
same,"Body weight, group MEAN","eribulin 0.05 mg/kg q4dX3 i.v., day 19 post 1st dose",18.5
same,"Body weight, group MEAN","eribulin 0.05 mg/kg q4dX3 i.v., day 24 post 1st dose",17.9
same,"tumor volume, group MEAN","eribulin 0.05 mg/kg q4dx3 i.v., day 0 post 1st dose",87.6 mm^3
same,"tumor volume, group MEAN","eribulin 0.05 mg/kg q4dx3 i.v., day 3 post 1st dose",133.2 mm^3
same,"tumor volume, group MEAN","eribulin 0.05 mg/kg q4dx3 i.v., day 5 post 1st dose",201.8 mm^3
same,"tumor volume, group MEAN","eribulin 0.05 mg/kg q4dx3 i.v., day 7 post 1st dose",229.2 mm^3
same,"tumor volume, group MEAN","eribulin 0.05 mg/kg q4dx3 i.v., day 10 post 1st dose",317 mm^3
same,"tumor volume, group MEAN","eribulin 0.05 mg/kg q4dx3 i.v., day 10 post 1st dose (second line so printed, between 17 and 24)",765.4 mm^3
same,"tumor volume, group MEAN","eribulin 0.05 mg/kg q4dx3 i.v., day 12 post 1st dose",347.4 mm^3
same,"tumor volume, group MEAN","eribulin 0.05 mg/kg q4dx3 i.v., day 17 post 1st dose",628.2 mm^3
same,"tumor volume, group MEAN","eribulin 0.05 mg/kg q4dx3 i.v., day 24 post 1st dose",1036.8 mm^3
same,"Body weight, group MEAN","eribulin 0.2 mg/kg q4dX3 i.v., day 0 post 1st dose",18.4
same,"Body weight, group MEAN","eribulin 0.2 mg/kg q4dX3 i.v., day 3 post 1st dose",18.7
same,"Body weight, group MEAN","eribulin 0.2 mg/kg q4dX3 i.v., day 5 post 1st dose",19.0
same,"Body weight, group MEAN","eribulin 0.2 mg/kg q4dX3 i.v., day 7 post 1st dose",18.9
same,"Body weight, group MEAN","eribulin 0.2 mg/kg q4dX3 i.v., day 10 post 1st dose",18.8
same,"Body weight, group MEAN","eribulin 0.2 mg/kg q4dX3 i.v., day 12 post 1st dose",18.8
same,"Body weight, group MEAN","eribulin 0.2 mg/kg q4dX3 i.v., day 17 post 1st dose",19.1
same,"Body weight, group MEAN","eribulin 0.2 mg/kg q4dX3 i.v., day 19 post 1st dose",18.8
same,"Body weight, group MEAN","eribulin 0.2 mg/kg q4dX3 i.v., day 24 post 1st dose",19.3
same,"Body weight, group MEAN","eribulin 0.2 mg/kg q4dX3 i.v., day 26 post 1st dose",19.5
same,"Body weight, group MEAN","eribulin 0.2 mg/kg q4dX3 i.v., day 28 post 1st dose",20.4
same,"Body weight, group MEAN","eribulin 0.2 mg/kg q4dX3 i.v., day 31 post 1st dose",20.3
same,"Body weight, group MEAN","eribulin 0.2 mg/kg q4dX3 i.v., day 33 post 1st dose",20.3
same,"Body weight, group MEAN","eribulin 0.2 mg/kg q4dX3 i.v., day 35 post 1st dose",20.1
same,"Body weight, individual animal",[1],20.8 and 18.3 and 21.6 (2×)
same,"Body weight, group MEAN",[1],20.5
same,"tumor volume, group MEAN","eribulin 0.2 mg/kg q4dx3 i.v., day 0 post 1st dose",88.2 mm^3
same,"tumor volume, group MEAN","eribulin 0.2 mg/kg q4dx3 i.v., day 3 post 1st dose",64.4 mm^3
same,"tumor volume, group MEAN","eribulin 0.2 mg/kg q4dx3 i.v., day 5 post 1st dose",61.8 mm^3
same,"tumor volume, group MEAN","eribulin 0.2 mg/kg q4dx3 i.v., day 7 post 1st dose",46 mm^3
same,"tumor volume, group MEAN","eribulin 0.2 mg/kg q4dx3 i.v., day 10 post 1st dose",36.6 mm^3
same,"tumor volume, group MEAN","eribulin 0.2 mg/kg q4dx3 i.v., day 10 post 1st dose (second line so printed, between 17 and 24)",28 mm^3
same,"tumor volume, group MEAN","eribulin 0.2 mg/kg q4dx3 i.v., day 12 post 1st dose",22 mm^3
same,"tumor volume, group MEAN","eribulin 0.2 mg/kg q4dx3 i.v., day 17 post 1st dose",2.6 mm^3
same,"tumor volume, group MEAN","eribulin 0.2 mg/kg q4dx3 i.v., day 24 post 1st dose",13.6 mm^3
same,"tumor volume, group MEAN","eribulin 0.2 mg/kg q4dx3 i.v., day 26 post 1st dose",9.8 mm^3
same,"tumor volume, group MEAN","eribulin 0.2 mg/kg q4dx3 i.v., day 28 post 1st dose",20.8 mm^3
same,"tumor volume, group MEAN","eribulin 0.2 mg/kg q4dx3 i.v., day 31 post 1st dose",11.4 mm^3
same,"tumor volume, group MEAN","eribulin 0.2 mg/kg q4dx3 i.v., day 33 post 1st dose",12.4 mm^3
same,"tumor volume, group MEAN","eribulin 0.2 mg/kg q4dx3 i.v., day 35 post 1st dose",15.4 mm^3
same,"tumor volume, group MEAN","eribulin 0.2 mg/kg q4dx3 i.v., day 38 post 1st dose",15.6 mm^3
same,"Body weight, group MEAN","eribulin 0.8 mg/kg q4dX3 i.v., day 0 post 1st dose",18.1
same,"Body weight, group MEAN","eribulin 0.8 mg/kg q4dX3 i.v., day 3 post 1st dose",18.5
same,"Body weight, group MEAN","eribulin 0.8 mg/kg q4dX3 i.v., day 5 post 1st dose",18.3
same,"Body weight, group MEAN","eribulin 0.8 mg/kg q4dX3 i.v., day 7 post 1st dose",18.6
same,"Body weight, group MEAN","eribulin 0.8 mg/kg q4dX3 i.v., day 10 post 1st dose",18.5
same,"Body weight, group MEAN","eribulin 0.8 mg/kg q4dX3 i.v., day 12 post 1st dose",18.3
same,"Body weight, group MEAN","eribulin 0.8 mg/kg q4dX3 i.v., day 17 post 1st dose",18.5
same,"Body weight, group MEAN","eribulin 0.8 mg/kg q4dX3 i.v., day 19 post 1st dose",18.5
same,"Body weight, group MEAN","eribulin 0.8 mg/kg q4dX3 i.v., day 24 post 1st dose",18.6
same,"Body weight, group MEAN","eribulin 0.8 mg/kg q4dX3 i.v., day 26 post 1st dose",18.8
same,"Body weight, group MEAN","eribulin 0.8 mg/kg q4dX3 i.v., day 28 post 1st dose",19.7
same,"Body weight, group MEAN","eribulin 0.8 mg/kg q4dX3 i.v., day 31 post 1st dose",19.7
same,"Body weight, group MEAN","eribulin 0.8 mg/kg q4dX3 i.v., day 33 post 1st dose",19.7
same,"tumor volume, group MEAN","eribulin 0.8 mg/kg q4dx3 i.v., day 0 post 1st dose",88.6 mm^3
same,"tumor volume, group MEAN","eribulin 0.8 mg/kg q4dx3 i.v., day 3 post 1st dose",46.6 mm^3
same,"tumor volume, group MEAN","eribulin 0.8 mg/kg q4dx3 i.v., day 5 post 1st dose",32.4 mm^3
same,"tumor volume, group MEAN","eribulin 0.8 mg/kg q4dx3 i.v., day 7 post 1st dose",24.4 mm^3
same,"tumor volume, group MEAN","eribulin 0.8 mg/kg q4dx3 i.v., day 10 post 1st dose",16.8 mm^3
same,"tumor volume, group MEAN","eribulin 0.8 mg/kg q4dx3 i.v., day 10 post 1st dose (second line so printed, between 17 and 24)",13 mm^3
same,"tumor volume, group MEAN","eribulin 0.8 mg/kg q4dx3 i.v., day 12 post 1st dose",18 mm^3
same,"tumor volume, group MEAN","eribulin 0.8 mg/kg q4dx3 i.v., day 17 post 1st dose",16.2 mm^3
same,"tumor volume, group MEAN","eribulin 0.8 mg/kg q4dx3 i.v., day 24 post 1st dose",13.4 mm^3
same,"tumor volume, group MEAN","eribulin 0.8 mg/kg q4dx3 i.v., day 26 post 1st dose",10.2 mm^3
same,"tumor volume, group MEAN","eribulin 0.8 mg/kg q4dx3 i.v., day 28 post 1st dose",13.4 mm^3
same,"tumor volume, group MEAN","eribulin 0.8 mg/kg q4dx3 i.v., day 31 post 1st dose",16 mm^3
same,"tumor volume, group MEAN","eribulin 0.8 mg/kg q4dx3 i.v., day 33 post 1st dose",16.6 mm^3
same,"tumor volume, group MEAN","eribulin 0.8 mg/kg q4dx3 i.v., day 35 post 1st dose",17 mm^3
same,"tumor volume, group MEAN","eribulin 0.8 mg/kg q4dx3 i.v., day 38 post 1st dose",18.2 mm^3
same,"Body weight, group MEAN","eribulin 1.6 mg/kg q4dX3 i.v., day 0 post 1st dose",18.2
same,"Body weight, group MEAN","eribulin 1.6 mg/kg q4dX3 i.v., day 3 post 1st dose",18.3
same,"Body weight, group MEAN","eribulin 1.6 mg/kg q4dX3 i.v., day 5 post 1st dose",18.2
same,"Body weight, group MEAN","eribulin 1.6 mg/kg q4dX3 i.v., day 7 post 1st dose",18.3
same,"Body weight, group MEAN","eribulin 1.6 mg/kg q4dX3 i.v., day 10 post 1st dose",18.4
same,"Body weight, group MEAN","eribulin 1.6 mg/kg q4dX3 i.v., day 12 post 1st dose",18.0
same,"Body weight, group MEAN","eribulin 1.6 mg/kg q4dX3 i.v., day 17 post 1st dose",18.7
same,"Body weight, group MEAN","eribulin 1.6 mg/kg q4dX3 i.v., day 19 post 1st dose",18.7
same,"Body weight, group MEAN","eribulin 1.6 mg/kg q4dX3 i.v., day 24 post 1st dose",19.0
same,"Body weight, group MEAN","eribulin 1.6 mg/kg q4dX3 i.v., day 26 post 1st dose",19.2
same,"Body weight, group MEAN","eribulin 1.6 mg/kg q4dX3 i.v., day 28 post 1st dose",20.1
same,"Body weight, group MEAN","eribulin 1.6 mg/kg q4dX3 i.v., day 31 post 1st dose",20.1
same,"Body weight, group MEAN","eribulin 1.6 mg/kg q4dX3 i.v., day 33 post 1st dose",20.0
same,"Body weight, group MEAN","eribulin 1.6 mg/kg q4dX3 i.v., day 35 post 1st dose",20.4
same,"Body weight, group MEAN","eribulin 1.6 mg/kg q4dX3 i.v., day 38 post 1st dose",20.1
same,"tumor volume, group MEAN","eribulin 1.6 mg/kg q4dx3 i.v., day 0 post 1st dose",88.4 mm^3
same,"tumor volume, group MEAN","eribulin 1.6 mg/kg q4dx3 i.v., day 3 post 1st dose",45.8 mm^3
same,"tumor volume, group MEAN","eribulin 1.6 mg/kg q4dx3 i.v., day 5 post 1st dose",25.4 mm^3
same,"tumor volume, group MEAN","eribulin 1.6 mg/kg q4dx3 i.v., day 7 post 1st dose",17.6 mm^3
same,"tumor volume, group MEAN","eribulin 1.6 mg/kg q4dx3 i.v., day 10 post 1st dose",11.6 mm^3
same,"tumor volume, group MEAN","eribulin 1.6 mg/kg q4dx3 i.v., day 10 post 1st dose (second line so printed, between 17 and 24)",3.8 mm^3
same,"tumor volume, group MEAN","eribulin 1.6 mg/kg q4dx3 i.v., day 12 post 1st dose",5.4 mm^3
same,"tumor volume, group MEAN",[2],0 mm^3
same,tumor volumes in individual mice,[2],0 mm^3
same,"tumor volume, group MEAN","eribulin 1.6 mg/kg q4dx3 i.v., day 24 post 1st dose",7.4 mm^3
same,"tumor volume, group MEAN","eribulin 1.6 mg/kg q4dx3 i.v., day 26 post 1st dose",5 mm^3
same,"tumor volume, group MEAN","eribulin 1.6 mg/kg q4dx3 i.v., day 28 post 1st dose",3.2 mm^3
same,"tumor volume, group MEAN","eribulin 1.6 mg/kg q4dx3 i.v., day 31 post 1st dose",5.6 mm^3
same,"tumor volume, group MEAN","eribulin 1.6 mg/kg q4dx3 i.v., day 33 post 1st dose",7.2 mm^3
same,"tumor volume, group MEAN","eribulin 1.6 mg/kg q4dx3 i.v., day 35 post 1st dose",6.2 mm^3
same,"tumor volume, group MEAN","eribulin 1.6 mg/kg q4dx3 i.v., day 38 post 1st dose",6.2 mm^3
same,minimum efficacious dose that induced tumor regression,q4dx3 i.v.,0.2 mg/kg

# “And” between values parts separate entries of the source, which are not always exact repeats. Identical values can stand only once. Like-named read-outs stand apart in the source and are kept apart here.
